# Experimental data as given in patent US9815851B2, “Pyrrolo carboxamides as modulators of orphan nuclear receptor RAR-related orphan receptor-gamma (RORγ, NR1F3) activity and for the treatment of chronic inflammatory and autoimmune diseases” (PHENEX PHARMACEUTICALS AG, priority 2011, dated 2017).
# The chains behind the UniProt entries cited, without tags or fusion partners. Residues count along the entry.
# UniProt P51449, whole entry: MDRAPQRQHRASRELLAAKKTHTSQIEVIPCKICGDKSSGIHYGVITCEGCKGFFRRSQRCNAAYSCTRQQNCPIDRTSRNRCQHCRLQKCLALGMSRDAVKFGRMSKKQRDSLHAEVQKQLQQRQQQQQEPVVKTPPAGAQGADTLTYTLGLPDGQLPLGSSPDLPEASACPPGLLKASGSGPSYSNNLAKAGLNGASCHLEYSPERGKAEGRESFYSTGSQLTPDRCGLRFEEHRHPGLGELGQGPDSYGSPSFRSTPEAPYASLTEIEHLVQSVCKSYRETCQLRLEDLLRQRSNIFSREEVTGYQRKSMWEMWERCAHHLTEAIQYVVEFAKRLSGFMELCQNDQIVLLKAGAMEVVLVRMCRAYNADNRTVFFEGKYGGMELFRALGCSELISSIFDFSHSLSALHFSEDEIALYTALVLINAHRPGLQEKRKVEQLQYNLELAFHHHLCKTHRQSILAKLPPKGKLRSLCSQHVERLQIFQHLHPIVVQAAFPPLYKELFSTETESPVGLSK
# UniProt P51449, 269-508 limits assumed: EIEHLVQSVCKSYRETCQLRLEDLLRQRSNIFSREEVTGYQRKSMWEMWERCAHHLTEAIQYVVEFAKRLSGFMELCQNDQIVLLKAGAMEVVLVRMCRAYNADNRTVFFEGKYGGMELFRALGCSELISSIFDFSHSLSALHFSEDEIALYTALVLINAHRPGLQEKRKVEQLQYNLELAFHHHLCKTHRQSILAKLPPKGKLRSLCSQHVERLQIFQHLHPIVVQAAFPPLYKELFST
# Legend:
# RORγ = RORγ (UniProt P51449); assay: RORγ Gal4 Reporter Gene Assay in 293T cells (firefly and renilla luciferase); assay type: cell-based, human; settings: for pIC50 (FF): second value of the cell, firefly luciferase; for pIC50 (REN): third value of the cell, renilla normalised luciferase
# [1] = molecular target: RORγ ligand binding domain (LBD) (Homo sapiens, UniProt P51449); assay: TR-FRET Activity Assay (ligand sensing, RORγ-LBD / coactivator peptide interaction, LANCE); assay type: biochemical; settings: first value of the cell FRET/FF/REN
Structure (SMILES),pIC50 (FF) (RORγ),pIC50 (REN) (RORγ),pIC50 (FRET) [1]
Cc1c(C(=O)NC2COC2)cc(-c2cc(C(C)(C)C)cc(C(C)(C)O)c2)n1CC1CCCCC1,7.0,7.1,6.1
Cc1c(C(=O)NC2COC2)cc(-c2cc(OCC(F)(F)F)nc(C(C)(C)C)c2)n1CC1CCCCC1,6.3,6.4,6.7
Cc1cc(-c2cc(C(=O)NC3CCOCC3)c(C)n2CC2CCCCC2)ccc1S(=O)(=O)NC(C)(C)C,7.1,7.2,6.5
